Legend:
[1] = Remote loading of drugs into nSSL (loading efficiency); assay type: physicochemical; conditions: saline pH 6, sulfate counter ion
Procedure: The remote loading was achieved by incubation of the liposomes with the drugs for 30 min at 55° C., then cooling to 4° C., followed by dialyzing against 5% dextrose to remove ammonia and residual unloaded drug. Alternatively, in some cases, unloaded drug and ammonia (released during the loading process) were removed using cation exchange resin Dowex 50WX-4 (G. Haran, R. Cohen, L. K. Bar, Y. Barenholz, Transmembrane ammonium sulfate gradients in liposomes produce efficient and stable entrapment of amphipathic weak bases. Biochim. Biophys. Acta 1151(2) (1993) 201-215; G. Storm, L. van Bloois, M. Brouwer, D. J. Crommelin, The interaction of cytostatic drugs with adsorbents in aqueous media. The potential implications for liposome preparation. Biochim. Biophys. Acta 818(3) (1985) 343-351). At times, the co-encapsulated nSSL with VCR and TPT is referred to by the abbreviation “LipoViTo”.
Quantification was performed using HPLC with UV and fluorescence detectors for VCR and TPT, respectively, as described by Zucker et al. (D. Zucker, et al. 2009 ibid.).
External medium: saline at pH 5.7;
Gradient forming salt: ammonium sulfate,
Loading duration: 30 min at 55° C.

[2] = Physicochemical properties of VCR and TPT
Excerpt: The need to develop one liposome that includes two drugs at a specific predefined mole ratio required optimization of the loading conditions and “crosstalk” with the drugs. For this, physiochemical characterization of the two drugs is required.

[3] = Maximum tolerated dose (MTD); assay type: in vivo, mice; conditions: ≦15% body weight loss nadir lasting ≦2 days
Procedure: The MTD is determined in clinical trials by testing increasing doses on different groups of people until the highest dose with acceptable side effects is found. For each drug, the MTD as determined in clinical trials is then available via publicly available sources such as SciFinder which is the On Line search engine of The American Chemical Society for various information including MTD (in animals as well as in humans). When referring to MTD in cancer treatment, the MTD values may be defined as survival in the absence of significant tumor burden with ≦15% body weight loss nadir lasting ≦2 days. In this context, the “MTD ratio” between two drugs is the ratio between the MTD determined for each drug. For instance, when referring to topotecan (TPT, topotecan hydrochloride, MW 421.45) and vincristine (VCR, vincristine sulfate MW 923.04), being two amphipathic weak bases, the MTD is respectively, 5 mg/kg and 1.5 mg/kg, and the TPT/VCR mole ratio of 7.3.
Maximum tolerated dose (MTD) values were defined as survival in the absence of significant tumor burden with ≦15% body weight loss nadir lasting ≦2 days. Tumor volume, survival, and body weight were monitored 2-3 times per week.

With Topotecan [Topotecan (TPT)] the “optimal drug-to-PL mole ratio for highest encapsulation efficiency” value [1] was roughly 0.220, the logP [2] was 1.39 and the logD ([2]; pH 6) was −0.27. The logD ([2]; pH 8) was 1.00 and the MTD [3] was 5 mg/kg.

Source: patent publication US20130052259A1, “LIPOSOMES COMPRISING AMPHIPATHIC DRUGS AND METHOD FOR THEIR PREPARATION” (priority 2010, published 2013)
